In paper PMC3615554 (Journal of biomolecular screening, 2012):

Tests used:
[1] = tested on: A549 cells (wild type EGFR); experiment: Alamar Blue viability assay, A549; type: cell-based
[2] = tested on: EGFR activation (granule formation) in A549-EGFRB cells; experiment: EGFRB assay, granule count readout; type: cell-based

With `COc1cc2ncnc(Nc3ccc(F)c(Cl)c3)c2cc1OCCCN1CCOCC1` [Gefitinib, gefitinib] the “Alamar Blue viability assay IC50 A549” value [1] was “inactive” and the Average granule count [2] was 507.
